Key:
DNA = DNA interstrand cross-link formation on UV (350 nm) irradiation (Example 16)
[1] = mice; cited from earlier work

Substance	direct strand breaks (DNA)	time to clearance from plasma after injection [1] [h]
5-(N,N, N-trimethylmethanaminium iodide)-1-(2-(5-(N,N, N-trimethyl methanaminium iodide)-4-nitro-1H-imidazol-1-yl)ethyl)-4-nitro-1H-imidazole	induced direct strand breaks	–
Mito-CP	–	≤ 6

— US8962670B2, “Anti-cancer agents” (UWM Research Foundation, Inc., priority 2011, dated 2015)
